## AlphaSeq binding of Ab-14 light chain variants to a spike HR2 peptide

All variants were tested on one target, the spike HR2 peptide PDVDLGDISGINAS (SARS-CoV-2).

Each scFv is VH, three GGGGS repeats, VL, as in the parent Ab-14, and differs from it in the CDRs of the light chain only.
VH: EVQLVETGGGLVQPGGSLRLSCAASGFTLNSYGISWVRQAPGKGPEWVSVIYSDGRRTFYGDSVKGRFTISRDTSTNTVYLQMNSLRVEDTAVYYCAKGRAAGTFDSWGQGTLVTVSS
VL: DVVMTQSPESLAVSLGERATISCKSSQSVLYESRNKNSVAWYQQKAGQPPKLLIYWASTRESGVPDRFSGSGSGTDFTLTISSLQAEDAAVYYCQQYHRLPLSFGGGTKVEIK

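This is the validation round: designs drawn from the data on random variants, tested in the same kind of assay. Their group label is 14L_Ctrl (Ctrl: baseline library sampled from a position-specific scoring matrix, with some repeated check sequences). Affinity was read by AlphaSeq, a pooled yeast mating assay with surface-displayed partners. After mating in shaken culture at 30 °C for 16 h, diploids were selected and their barcode pairs sequenced. Each replicate has its own calibration line, from reference interactions of the BCL2 family. Mating was done six times.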

Sequences are complete VL domains.
The read-out is the apparent dissociation constant on a log10 scale (nM): the lower, the stronger.
"nd" marks a missing value. The strain was present, yet no cells mated with the target were sequenced in that replicate, which points to weak or no binding.
Three control strains display no target. For all light chain designs, 4% of the pairings with them gave a signal, with a median of 2.64 and one signal in twenty below 1.59, so weak values seen in few replicates may be background. Also given: how often the same scFv was detected with the empty control strains, with their mean in brackets.
The authors averaged sequences with at least three values out of six and counted those with two or fewer as poor binders.
A sequence measured in both rounds can read differently, since the two assays cover different ranges.

VL	replicates, log10 nM	control signals
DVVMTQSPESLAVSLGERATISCKSDQSVLPESRNKNSVAWYQQKAGQPPKLLIYKASTRESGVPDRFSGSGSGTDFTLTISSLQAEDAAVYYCQQYHRLPGSFGGGTKVEIK	1.44 / 2.12 / 1.22 / 1.52 / 1.62 / 1.45	3/18 (2.68)
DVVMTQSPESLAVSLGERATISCKSSQSVLYESRNFNSVAWYQQKAGQPPKLLIYWAGTRESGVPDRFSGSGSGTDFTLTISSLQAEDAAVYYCQQYHRLPLSFGGGTKVEIK	nd / nd / 2.34 / nd / nd / nd	0/18
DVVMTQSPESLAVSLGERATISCKSEQSVLYDSRNINSVAWYQQKAGQPPKLLIYGASTRESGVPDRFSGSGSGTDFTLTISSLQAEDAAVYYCQQYHRLPLSFGGGTKVEIK	0.09 / 0.04 / -0.11 / -0.38 / -0.30 / 0.25	0/18
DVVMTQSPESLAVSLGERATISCKSSQSVVYESRNKNSVAWYQQKAGQPPKLLIYWASTRESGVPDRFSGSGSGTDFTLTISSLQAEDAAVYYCQQYHRLPLSFGGGTKVEIK	2.35 / 1.40 / nd / 2.16 / nd / nd	1/18 (1.79)
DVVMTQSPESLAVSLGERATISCKSSQSVLYESRLKNSVAWYQQKAGQPPKLLIYNGSTRESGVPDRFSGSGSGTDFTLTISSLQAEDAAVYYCQQYHRLPLSFGGGTKVEIK	0.87 / 0.97 / 0.62 / 0.59 / 0.69 / 0.81	2/18 (2.96)
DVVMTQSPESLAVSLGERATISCKMSQSWLEEDRNKNSVAWYQQKAGQPPKLLIYWASTRESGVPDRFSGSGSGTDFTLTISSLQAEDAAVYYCQQYSRLPLSFGGGTKVEIK	1.49 / 0.88 / 0.63 / 0.86 / 0.92 / 1.42	1/18 (2.81)
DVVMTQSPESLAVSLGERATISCKSSQSVLYGDNNKNSVAWYQQKAGQPPKLLIYWASTRESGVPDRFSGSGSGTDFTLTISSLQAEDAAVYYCQQYRRLPLSFGGGTKVEIK	0.40 / 1.09 / 0.45 / 1.96 / 0.99 / 1.27	0/18
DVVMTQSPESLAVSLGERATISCKSSQSVLYESRNKNSVAWYQQKAGQPPKLLIYWASTRESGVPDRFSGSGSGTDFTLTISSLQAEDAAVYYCQQYHRLLLSFGGGTKVEIK	nd / nd / nd / nd / nd / nd	0/18
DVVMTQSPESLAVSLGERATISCKMSQSVLYESRNKNSVAWYQQKAGQPPKLLIYWASTREVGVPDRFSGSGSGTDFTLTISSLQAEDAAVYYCQQYHRLPLSFGGGTKVEIK	0.43 / 0.76 / 0.45 / 0.41 / 0.68 / 1.12	0/18
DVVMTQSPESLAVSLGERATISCKSSQSMTYESRNKNSVAWYQQKAGQPPKLLIYQGSTRESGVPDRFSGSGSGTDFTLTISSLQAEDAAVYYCQQYHRLPLSFGGGTKVEIK	-0.13 / -0.22 / -0.16 / -0.33 / -0.10 / -0.07	1/18 (3.14)
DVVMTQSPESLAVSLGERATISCKSSPSCLYESRNKNSVAWYQQKAGQPPKLLIYWASTRESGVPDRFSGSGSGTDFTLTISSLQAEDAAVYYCQQYHRLPLSFGGGTKVEIK	1.85 / 3.48 / 2.74 / 2.49 / 2.55 / 2.64	2/18 (3.22)
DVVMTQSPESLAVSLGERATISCKISQSDLYESRNKNSVAWYQQKAGQPPKLLIYWASTREKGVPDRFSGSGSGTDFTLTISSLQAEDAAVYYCEQYHRLPLSFGGGTKVEIK	1.38 / 1.28 / 0.88 / 0.82 / 0.65 / 0.73	1/18 (3.87)
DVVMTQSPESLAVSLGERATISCKSSQSVLYESRNKNSVAWYQQKAGQPPKLLIYQASTRESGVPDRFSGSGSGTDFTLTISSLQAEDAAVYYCQQPIRLPLSFGGGTKVEIK	1.05 / 0.92 / 0.19 / 0.46 / 0.63 / 0.71	1/18 (0.85)
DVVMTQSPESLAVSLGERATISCKSSQSVLYESRNKNSVAWYQQKAGQPPKLLIYHASTRESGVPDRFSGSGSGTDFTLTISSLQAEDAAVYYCTQYHEEPLSFGGGTKVEIK	nd / nd / nd / nd / nd / nd	0/18
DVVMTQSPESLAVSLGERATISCKSSQSQLYESRNKNSVAWYQQKAGQPPKLLIYFASTRESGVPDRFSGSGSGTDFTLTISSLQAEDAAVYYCQLYHILPLSFGGGTKVEIK	nd / 1.16 / nd / 1.53 / 1.09 / 2.87	1/18 (1.92)
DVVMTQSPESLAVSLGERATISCKSSQSVLYEGRNCNSVAWYQQKAGQPPKLLIYEASTREQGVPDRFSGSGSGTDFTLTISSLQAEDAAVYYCQQYHRLPLSFGGGTKVEIK	0.84 / 0.52 / 0.58 / 0.53 / 0.85 / 0.91	0/18
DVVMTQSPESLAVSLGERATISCKSSQSVLYESRNKNSVAWYQQKAGQPPKLLIYAASTHESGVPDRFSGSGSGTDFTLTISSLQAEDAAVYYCQQVHRLPLSFGGGTKVEIK	nd / nd / nd / nd / nd / nd	0/18
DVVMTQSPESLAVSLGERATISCKSSQSVWNESRNKNSVAWYQQKAGQPPKLLIYWASTRESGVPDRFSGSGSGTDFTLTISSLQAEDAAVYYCQQYHRLPLSFGGGTKVEIK	1.76 / 1.74 / 1.73 / 1.21 / 1.93 / 1.47	0/18
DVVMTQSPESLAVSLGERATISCKSSQSVLYESRNKNEVAWYQQKAGQPPKLLIYWASERESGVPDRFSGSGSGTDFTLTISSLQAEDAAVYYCQQYHRLPLSFGGGTKVEIK	nd / nd / 2.39 / 2.00 / 1.49 / 2.10	0/18
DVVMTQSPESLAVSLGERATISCKSSQSGLYESRNKNSVAWYQQKAGQPPKLLIYDASTRSSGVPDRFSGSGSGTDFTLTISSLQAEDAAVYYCQQYHRLPLSFGGGTKVEIK	0.76 / 0.84 / 0.71 / 0.91 / 0.44 / 0.77	1/18 (3.95)

Top 2 of the variants detected in all replicates, tightest first:

VL	replicates, log10 nM	control signals
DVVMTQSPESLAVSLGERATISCKSSQSMTYESRNKNSVAWYQQKAGQPPKLLIYQGSTRESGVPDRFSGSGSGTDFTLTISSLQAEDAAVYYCQQYHRLPLSFGGGTKVEIK	-0.13 / -0.22 / -0.16 / -0.33 / -0.10 / -0.07	1/18 (3.14)
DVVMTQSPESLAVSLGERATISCKSEQSVLYDSRNINSVAWYQQKAGQPPKLLIYGASTRESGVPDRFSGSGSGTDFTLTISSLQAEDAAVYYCQQYHRLPLSFGGGTKVEIK	0.09 / 0.04 / -0.11 / -0.38 / -0.30 / 0.25	0/18

Values reported by Li et al. 2023, doi:10.1038/s41467-023-39022-2 (FLAb copy).